Reference: publication PMC5080983 (Nature communications, 2015)

System: KDM5A1–797
Experiment: Demethylation of methylated H3K4 peptides as substrates
Assay type: biochemical
Conditions: H3K4me3/2/1 peptides aa 1–18

demethylation as substrate (in words): preference
Substance: H3K4me3: H3 tail peptide (aa 1–18) in which Lys4 is tri-methylated
